Drawing on ChEMBL document CHEMBL4007440, “Development of the First Generation of Disulfide-Based Subtype-Selective and Potent Covalent Pyruvate Dehydrogenase Kinase 1 (PDK1) Inhibitors” (J Med Chem, 2017), this text covers Kinact and Ratio for 4 compounds.

The chains behind the UniProt entries cited, without tags or fusion partners.
UniProt Q15118, whole entry, looked up: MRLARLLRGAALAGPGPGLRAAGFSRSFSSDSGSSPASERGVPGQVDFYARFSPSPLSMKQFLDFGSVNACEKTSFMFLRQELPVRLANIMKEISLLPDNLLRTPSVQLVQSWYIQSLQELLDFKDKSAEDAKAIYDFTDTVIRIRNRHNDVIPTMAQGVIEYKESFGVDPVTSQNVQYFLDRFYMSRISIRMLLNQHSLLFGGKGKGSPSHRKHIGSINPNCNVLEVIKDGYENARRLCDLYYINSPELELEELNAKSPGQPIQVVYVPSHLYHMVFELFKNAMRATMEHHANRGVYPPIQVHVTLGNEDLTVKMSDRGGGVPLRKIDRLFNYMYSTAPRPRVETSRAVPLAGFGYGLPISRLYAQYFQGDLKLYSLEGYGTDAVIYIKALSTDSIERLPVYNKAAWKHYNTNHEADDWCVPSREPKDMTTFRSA
UniProt Q15120, whole entry, looked up: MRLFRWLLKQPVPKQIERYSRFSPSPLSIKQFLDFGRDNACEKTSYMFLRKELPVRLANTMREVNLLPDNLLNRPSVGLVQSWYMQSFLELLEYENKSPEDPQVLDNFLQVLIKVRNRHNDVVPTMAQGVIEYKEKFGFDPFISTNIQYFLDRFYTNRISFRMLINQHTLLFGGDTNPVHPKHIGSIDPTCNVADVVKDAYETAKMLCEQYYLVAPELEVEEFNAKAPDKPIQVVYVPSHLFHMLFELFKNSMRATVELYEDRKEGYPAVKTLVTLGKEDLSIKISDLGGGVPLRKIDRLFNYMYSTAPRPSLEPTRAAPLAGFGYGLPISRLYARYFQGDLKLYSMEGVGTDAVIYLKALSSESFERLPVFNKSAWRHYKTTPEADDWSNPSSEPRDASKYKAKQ

For test [1], the target named is T1, [Pyruvate dehydrogenase (acetyl-transferring)] kinase isozyme 1, mitochondrial (Homo sapiens, UniProt Q15118). Put plainly: Inhibition of full length His6-tagged PDK1 (unknown origin) expressed in Escherichia coli assessed as inactivation rate using full length His6-tagged PDHA1 as substrate up to 45 mins by ELISA. Background: In an ELISA, binding on a coated surface is turned into a signal by an enzyme label.

Test [2] concerns the target T1, [Pyruvate dehydrogenase (acetyl-transferring)] kinase isozyme 1, mitochondrial. Put plainly: Ratio of Kinact to Ki for full length His6-tagged PDK1 (unknown origin) expressed in Escherichia coli.
Test [3] has as its target [Pyruvate dehydrogenase (acetyl-transferring)] kinase isozyme 2, mitochondrial (Homo sapiens, UniProt Q15119).
In test [4] the target is [Pyruvate dehydrogenase (acetyl-transferring)] kinase isozyme 3, mitochondrial (Homo sapiens, UniProt Q15120).

Regarding `S=C(SSC(=S)N1CCCOCC1)N1CCCOCC1`, the values for the Kinact in test [1], in test [3] and in test [4] were 5.47 ×10⁻⁴ /s, 1.56 ×10⁻⁴ /s and 8.58 ×10⁻⁴ /s, respectively. For the same compound, the Ratio in test [2] is 5.14 ×10³ /M/s.
Taken in the same sequence, the figures for `COC[C@@H]1COCCN1C(=S)SSC(=S)N1CCOC[C@H]1COC` were 4.43 ×10⁻⁴ /s, 2.07 ×10⁻⁴ /s, 17.6 ×10⁻⁴ /s and 4.17 ×10³ /M/s.
On to `COC[C@H]1COCCN1C(=S)SSC(=S)N1CCOC[C@@H]1COC`, for which the Kinact in test [1] worked out at 4.95 ×10⁻⁴ /s. Besides, the Ratio in test [2] is 4.06 ×10³ /M/s.
Turning to `S=C(SSC(=S)N1CCOCC1)N1CCOCC1`, the Kinact in test [1] is 8.75 ×10⁻⁴ /s; in test [3], 0.99 ×10⁻⁴ /s; in test [4], 12.8 ×10⁻⁴ /s. In addition, the Ratio in test [2] is 1.94 ×10³ /M/s.
